In experiment [1] the target is T1, NL1 (Mus musculus, UniProt Q9JLI3).
T1 sequence (Q9JLI3 63-765 limits assumed): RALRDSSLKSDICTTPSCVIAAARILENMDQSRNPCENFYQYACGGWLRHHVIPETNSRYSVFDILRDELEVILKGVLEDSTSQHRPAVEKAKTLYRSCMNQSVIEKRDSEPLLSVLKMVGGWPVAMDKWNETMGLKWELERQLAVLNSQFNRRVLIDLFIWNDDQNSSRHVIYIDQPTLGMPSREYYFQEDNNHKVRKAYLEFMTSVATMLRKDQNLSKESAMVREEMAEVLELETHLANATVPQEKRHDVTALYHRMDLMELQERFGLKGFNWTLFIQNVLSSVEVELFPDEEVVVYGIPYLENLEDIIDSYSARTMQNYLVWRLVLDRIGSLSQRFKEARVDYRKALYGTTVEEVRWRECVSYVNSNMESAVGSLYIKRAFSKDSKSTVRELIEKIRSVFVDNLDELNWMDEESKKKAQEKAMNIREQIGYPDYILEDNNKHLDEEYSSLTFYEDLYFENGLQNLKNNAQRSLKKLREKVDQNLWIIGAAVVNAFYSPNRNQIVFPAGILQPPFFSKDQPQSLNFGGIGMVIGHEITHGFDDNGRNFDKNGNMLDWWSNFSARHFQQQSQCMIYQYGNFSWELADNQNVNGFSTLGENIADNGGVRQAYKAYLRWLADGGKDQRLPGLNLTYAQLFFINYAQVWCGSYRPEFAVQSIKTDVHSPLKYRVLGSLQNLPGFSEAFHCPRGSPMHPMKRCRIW
Briefly: HPLC analysis of the hydrolysis of Leu-enkephalin by NL1. Format: biochemical. Also noted: The soluble form of NL-1 was assayed for activity; made in house; host or cells: HEK 293 cells (section 2, pCDNA3/RSV). The settings on record: RP-HPLC, products Tyr-Gly-Gly and Phe-Leu. The source says: (§1) Hydrolysis products were separated by reversed-phase HPLC as described previously.

Experiment [2] addresses T2, sNEP (Oryctolagus cuniculus, UniProt P08049).
T2 construct: Fusion of a cleavable signal peptide to the ectodomain of neutral endopeptidase; cleavable signal peptide of proopiomelanocortin (replaces cytosolic and transmembrane domains) (N, cleaved yes); made in house; host or cells: LLC-PK1 cells transfected with pRcCMV-sNEP; concentrated culture medium
T2 sequence (P08049 52-750 limits assumed): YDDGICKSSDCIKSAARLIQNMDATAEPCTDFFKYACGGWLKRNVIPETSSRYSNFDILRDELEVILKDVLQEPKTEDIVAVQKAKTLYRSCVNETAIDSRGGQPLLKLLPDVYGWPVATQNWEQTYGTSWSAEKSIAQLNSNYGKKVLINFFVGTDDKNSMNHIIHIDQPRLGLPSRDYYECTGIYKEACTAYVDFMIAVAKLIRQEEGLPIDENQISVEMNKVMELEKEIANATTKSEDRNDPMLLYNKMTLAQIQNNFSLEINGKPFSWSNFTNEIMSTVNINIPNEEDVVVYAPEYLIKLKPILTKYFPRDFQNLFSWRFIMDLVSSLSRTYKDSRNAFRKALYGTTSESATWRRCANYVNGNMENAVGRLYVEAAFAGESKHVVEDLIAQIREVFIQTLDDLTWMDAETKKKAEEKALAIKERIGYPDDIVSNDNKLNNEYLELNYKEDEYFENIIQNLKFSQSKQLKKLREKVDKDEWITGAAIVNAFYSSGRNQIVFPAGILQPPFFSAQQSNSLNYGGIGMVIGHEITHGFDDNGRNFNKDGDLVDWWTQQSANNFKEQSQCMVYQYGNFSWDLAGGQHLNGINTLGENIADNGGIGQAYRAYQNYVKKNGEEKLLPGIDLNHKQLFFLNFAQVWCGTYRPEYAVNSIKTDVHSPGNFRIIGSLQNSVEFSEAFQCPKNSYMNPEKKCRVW
Briefly: HPLC analysis of the hydrolysis of Leu-enkephalin by sNEP. Format: biochemical. The settings on record: RP-HPLC, products Tyr-Gly-Gly and Phe-Leu.
Source text: as §1

For Leu5-enkephalin, the peptide bond cleaved entry in experiment [1] and in experiment [2] was “Gly3-Phe4” in each case.

(Values after US7070974B1, “Metalloproteases of the neprilysin family” (Universite de Montreal, priority 1999, dated 2006).)
